pKd: −log10 of the molar value.
Each substance was assayed against HLA-DR (DRA1*01:01 / DRB1*12:01), soluble knob-into-hole Fc heterodimer (human) (assay: ELISA).

Substance | pKd
RBD371-385 | < 5.00
RBD399-413 | < 5.00
RBD423-437 | < 5.00
RBD431-445 | < 5.00
RBD523-537 | < 5.00

From paper doi:10.1101/2025.06.05.658000
